# Legend:
# Chains of the proteins cited; added tags and fusions are not shown.
# UniProt P03372, whole entry: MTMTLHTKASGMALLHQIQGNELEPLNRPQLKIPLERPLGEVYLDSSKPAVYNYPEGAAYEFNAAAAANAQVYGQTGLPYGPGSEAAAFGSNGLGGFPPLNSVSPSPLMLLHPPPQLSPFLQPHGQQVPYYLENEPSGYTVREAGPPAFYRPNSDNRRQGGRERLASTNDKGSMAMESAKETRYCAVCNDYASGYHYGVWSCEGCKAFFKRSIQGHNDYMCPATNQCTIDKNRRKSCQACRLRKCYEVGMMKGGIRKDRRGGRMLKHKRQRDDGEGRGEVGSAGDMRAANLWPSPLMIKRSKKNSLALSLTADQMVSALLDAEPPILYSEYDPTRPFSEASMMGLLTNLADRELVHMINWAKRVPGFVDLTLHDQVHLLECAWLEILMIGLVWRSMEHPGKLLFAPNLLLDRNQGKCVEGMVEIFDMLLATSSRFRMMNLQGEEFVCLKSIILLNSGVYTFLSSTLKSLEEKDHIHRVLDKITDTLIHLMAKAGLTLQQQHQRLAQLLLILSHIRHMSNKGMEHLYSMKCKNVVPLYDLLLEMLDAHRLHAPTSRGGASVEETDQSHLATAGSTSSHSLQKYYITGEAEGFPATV
# [1] = target: T1, progesterone receptor (PR) (Homo sapiens, UniProt P06401); assay: htSMT of Halo-PR in U2OS cells; assay type: cell-based; conditions: 1 μM antagonist, absence or presence of cognate agonist
# T1 construct: expressed in transfected cells; host or cells: U2OS
# T1 sequence (P06401 1-933): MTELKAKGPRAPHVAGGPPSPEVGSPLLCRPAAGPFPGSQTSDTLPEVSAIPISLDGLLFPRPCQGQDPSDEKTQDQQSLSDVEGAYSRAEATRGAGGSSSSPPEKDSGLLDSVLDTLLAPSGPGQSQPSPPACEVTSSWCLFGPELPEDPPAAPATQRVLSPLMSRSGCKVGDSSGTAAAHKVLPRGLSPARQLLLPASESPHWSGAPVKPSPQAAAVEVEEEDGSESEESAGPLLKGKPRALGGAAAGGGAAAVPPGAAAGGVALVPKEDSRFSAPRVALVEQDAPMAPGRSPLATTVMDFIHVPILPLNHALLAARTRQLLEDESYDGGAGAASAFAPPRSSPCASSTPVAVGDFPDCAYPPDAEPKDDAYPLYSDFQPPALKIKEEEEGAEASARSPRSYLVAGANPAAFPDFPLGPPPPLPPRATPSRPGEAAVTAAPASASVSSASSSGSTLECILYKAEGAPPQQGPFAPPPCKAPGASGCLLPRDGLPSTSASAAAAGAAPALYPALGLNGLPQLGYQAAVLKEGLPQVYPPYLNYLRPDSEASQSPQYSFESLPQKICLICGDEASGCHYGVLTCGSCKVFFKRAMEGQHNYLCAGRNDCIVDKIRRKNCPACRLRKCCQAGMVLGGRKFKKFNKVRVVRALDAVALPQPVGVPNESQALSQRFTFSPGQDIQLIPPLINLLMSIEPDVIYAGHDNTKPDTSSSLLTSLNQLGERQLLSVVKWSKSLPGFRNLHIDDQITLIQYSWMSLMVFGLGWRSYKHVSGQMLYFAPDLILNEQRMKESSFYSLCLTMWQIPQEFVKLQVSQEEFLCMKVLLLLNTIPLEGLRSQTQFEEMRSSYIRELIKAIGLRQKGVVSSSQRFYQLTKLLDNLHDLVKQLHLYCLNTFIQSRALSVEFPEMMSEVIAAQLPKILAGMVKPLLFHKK
# Estrogen Receptor (ER) = target: T2, Estrogen Receptor (ER) (Homo sapiens, UniProt P03372); assay: residence time imaging of ER-Halo (track length survival); assay type: cell-based; conditions: track length distribution, compared with DMSO or other ER modulators
# T2 construct: expressed in transfected cells; host or cells: U2OS
Structure (SMILES),effect on PR chromatin binding (fbound) [1],relative ER residence (binding) times (Estrogen Receptor (ER))
CC#C[C@]1(O)CC[C@H]2[C@@H]3CCC4=CC(=O)CCC4=C3[C@@H](c3ccc(N(C)C)cc3)C[C@@]21C [mifepristone],behaves similarly to ER antagonists,–
C[C@]12CC[C@@H]3c4ccc(O)cc4C[C@@H](CCCCCCCCC[S+]([O-])CCCC(F)(F)C(F)(F)F)[C@H]3[C@@H]1CC[C@@H]2O (some centres unmarked),–,longer binding times

# — US20250314586A1
